High-throughput results deposited in PubChem by Broad Institute.
Yeast UUG start = alters start codon recognition fidelity in yeast; S. cerevisiae UUG-firefly luciferase reporter, luminescence/redox ratio; activity score, % at 18.7 µM; actives 0.13% (n = 350,000); AID 602363;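 active = replicate mean at a twofold rise or more, about +100% in these data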;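 also: firefly luciferase made from a UUG start codon reports start codon fidelity; reporter light over untreated wells divided by growth signal over untreated wells; some hits fall short of that in this replicate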
Cneo AK release = causes C. neoformans cell lysis | adenylate kinase release luminescence, 4 h; normalised: neutral wells 0, clomiphene wells 100 | lysis activity, % at 15 µM | actives 0.2% (n = 360,000) | AID 651654;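 active means mean lysis activity across replicates of at least 80%, whatever share of replicates individually reach that level; inactive means mean lysis activity below 80%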
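Assay system: C. neoformans cells. Amount: yeast cell density of 5 × 10^6 cells/mL. Technique: AK luminescence. Buffer or medium: YPD. Times: static 4 h at 37 °C with compound, 1 h detection. Dosing: single-point compound dose. Read-out: lysis from increased AK signal.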
E-selectin induc = induces E-selectin expression in human endothelial cells | P16581 | HUVEC E-selectin immunofluorescence imaging; normalized: neutral wells 0, TNF-alpha wells 100 | activation, % at 7.58 µM | actives 0.37% (n = 260,000) | AID 686992;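 active means mean E-selectin-positive cell signal at least 10% of the positive control, reached in at least 60% of replicates, without over 20% cell loss; inconclusive means no rule given, readout overlaps actives, possibly toxicity-flagged; inactive means the rest, including those meeting only one limit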
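Read-out basis: % PE-positive cells; Test system: HUVEC primary endothelial cells; Technique: immunofluorescence imaging; Dosing: single-point compound dose.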
DENV2 CPE = DENV2-induced cell death inhibition | DENV2-infected cells, cytopathic effect rescue, plate reader | CPE inhibition, % at 9.99 µM | actives 1.7% (n = 350,000); in the data active means CPE inhibition above about 20%, passing the limit was not always enough; inconclusive means no clear call, values can overlap the other calls; tested in BHK-21 cells;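 further: 0% = median of neutral control wells and 100% = median of positive control wells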
Starred values were filed as active, the others as inactive; ? = inconclusive; . = not tested or not shown. Rows were chosen to be rich in hits. Some 1.8% of all compounds tested hit in one or more screens of this group.

Key to letters: A = Yeast UUG start; B = Cneo AK release; C = E-selectin induc; D = DENV2 CPE
compound: COc1ccc(CN(C)C[C@H]2Oc3ccc(NC(=O)Nc4ccc(F)cc4)cc3CC(=O)N([C@@H](C)CO)C[C@@H]2C)cc1
  A: 12 | B: 102* | C: 8 | D: 3
compound: C[C@H](CO)N1C[C@H](C)[C@H](CN(C)Cc2ccc(C(=O)O)cc2)Oc2ccc(NS(=O)(=O)c3ccc(F)cc3)cc2CC1=O
  A: 2 | B: -3 | C: 1 | D: 3
compound: COc1ccc(CN(C)C[C@H]2Oc3ccc(NC(=O)Nc4ccc(F)cc4)cc3CC(=O)N([C@@H](C)CO)C[C@H]2C)cc1
  A: 0 | B: 1 | C: . | D: -1
compound: C[C@@H]1CN([C@@H](C)CO)C(=O)Cc2cc(NC(=O)Nc3ccc(F)cc3)ccc2O[C@@H]1CN(C)Cc1ccc(C(=O)O)cc1
  A: 18 | B: 63 | C: 80* | D: ?
compound: C[C@@H]1CN([C@H](C)CO)C(=O)c2cc(-c3cccc(F)c3)cnc2O[C@@H]1CN(C)C(=O)C1CC1
  A: . | B: . | C: 0 | D: .
compound: O=C(OCC(=O)c1c[nH]c2ccccc12)c1cccc([N+](=O)[O-])c1
  A: -7 | B: 1 | C: 1 | D: 80*
compound: O=C(CCc1c[nH]c2ccccc12)OCc1cccc([N+](=O)[O-])c1
  A: 2 | B: 0 | C: 0 | D: 27*
compound: COc1ccc(CN(C)C[C@@H]2Oc3ccc(NC(=O)CCC(F)(F)F)cc3CC(=O)N([C@@H](C)CO)C[C@@H]2C)cc1
  A: -1 | B: 0 | C: 0 | D: -1
compound: CCOc1cc(OCC)cc(C(=O)N2CCC[C@@H]2C(=O)N2CCC[C@@H]2C(=O)NCc2ccccc2Cl)c1
  A: . | B: . | C: 0 | D: 81*
compound: CC(C)(C)OC(=O)N1CCC[C@@H]1C(=O)N1CCC[C@@H]1C(=O)NCc1ccccc1Cl
  A: . | B: . | C: 0 | D: 34*

Pulled by structure from the entries so far, two records:
Key to letters: A = Yeast UUG start; B = Cneo AK release; C = E-selectin induc; D = DENV2 CPE
compound: COc1ccc(CN(C)C[C@H]2Oc3ccc(NC(=O)Nc4ccc(F)cc4)cc3CC(=O)N([C@@H](C)CO)C[C@H]2C)cc1
  A: 0 | B: 1 | C: . | D: -1
compound: CC(C)(C)OC(=O)N1CCC[C@@H]1C(=O)N1CCC[C@@H]1C(=O)NCc1ccccc1Cl
  A: . | B: . | C: 0 | D: 34*

Next part
Key to letters: A = Yeast UUG start; B = Cneo AK release; C = E-selectin induc; D = DENV2 CPE
compound: C[C@H](CO)N1C[C@H](C)[C@H](CN(C)Cc2ccc(Oc3ccccc3)cc2)Oc2ccc(NC(=O)Nc3ccc4c(c3)OCO4)cc2CC1=O
  A: -5 | B: -3 | C: 0 | D: -5
compound: C[C@@H]1CN([C@@H](C)CO)C(=O)CCCn2cc(nn2)CO[C@@H]1CN(C)C(=O)CCCN(C)C
  A: 13 | B: 97* | C: 0 | D: -8
compound: C[C@@H]1CN([C@H](C)CO)C(=O)CCCn2cc(nn2)CO[C@H]1CN(C)C(=O)CCCN(C)C
  A: -5 | B: 10 | C: 2 | D: -1
compound: C[C@@H]1CN([C@H](C)CO)C(=O)CCCn2cc(nn2)CO[C@@H]1CN(C)C(=O)CCCN(C)C
  A: 30 | B: 105* | C: . | D: -10
compound: C[C@H](CO)N1C[C@H](C)[C@@H](CN(C)C(=O)CCCN(C)C)OCc2cn(nn2)CCCC1=O
  A: -16 | B: -1 | C: 2 | D: 4
compound: COc1ccc(CN(C)C[C@@H]2Oc3c(NC(=O)c4cc(C)nn4C)cccc3C(=O)N([C@@H](C)CO)C[C@H]2C)cc1
  A: -6 | B: -3 | C: 0 | D: -8
compound: CC(C)N(C[C@@H]1[C@H](c2ccccc2)[C@@H](CO)N1S(C)(=O)=O)C(=O)CN(C)C
  A: 5 | B: 51 | C: 0 | D: 55*
compound: COc1ccc(C#Cc2cnc3c(c2)C(=O)N([C@@H](C)CO)C[C@@H](C)[C@@H](CN(C)C(=O)CN(C)C)O3)cc1
  A: -2 | B: 1 | C: 0 | D: -2
compound: CNc1cccc(-c2ccccc2CO)n1
  A: -5 | B: 3 | C: 0 | D: 30*
compound: C[C@H](CO)N1C[C@H](C)[C@H](CN(C)C(=O)CN2CCOCC2)Oc2ncc(C#CCN(C)C)cc2C1=O
  A: -8 | B: -1 | C: 0 | D: 6

Continued.
Key to letters: A = Yeast UUG start; B = Cneo AK release; C = E-selectin induc; D = DENV2 CPE
compound: Cc1noc(C)c1NC(=O)N(C)C[C@@H]1Oc2ccc(NC(=O)Nc3cccc4ccccc34)cc2CC(=O)N([C@@H](C)CO)C[C@@H]1C
  A: 13 | B: 49 | C: 0 | D: -5
compound: Cn1cccc1C(=O)OCC(=O)NC(=O)c1ccc(Cl)cc1
  A: -19 | B: 0 | C: 0 | D: 26*
compound: Cc1ccc(C(=O)OCC(=O)NC(=O)c2cccn2C)cc1
  A: -9 | B: -1 | C: . | D: 13
compound: Cc1ccc(C(=O)Nc2ccc(N3CCN(C)CC3)cc2)cc1C
  A: -44 | B: -5 | C: . | D: 27*
compound: COc1ccc([N+](=O)[O-])cc1NC(=O)C(C)OC(=O)C1CC(=O)N(Cc2ccco2)C1 (stereo not given)
  A: -14 | B: 0 | C: 0 | D: 95*
compound: COc1cc(/C=C/c2cccc[n+]2C)ccc1OCC(=O)Nc1ccccc1
  A: -3 | B: 3 | C: 1 | D: 3
compound: COc1cc(/C=C/c2cccc[n+]2C)ccc1OCC(=O)Nc1cccc(Cl)c1
  A: 1 | B: -1 | C: 3 | D: 25*
compound: O=C(NC[C@@H]1CC[C@H]2[C@H](CN2C(=O)C2CCOCC2)O1)c1cccnc1
  A: . | B: . | C: . | D: -3
compound: C[C@H]1CN([C@@H](C)CO)C(=O)c2cc(NC(=O)Nc3ccccc3)ccc2O[C@@H]1CN(C)Cc1ccc(C(F)(F)F)cc1
  A: -6 | B: -2 | C: 0 | D: 2
compound: C[C@@H]1CN([C@@H](C)CO)C(=O)c2cc(NC(=O)Nc3ccccc3)ccc2O[C@H]1CN(C)Cc1ccc(C(F)(F)F)cc1
  A: 1 | B: 0 | C: 0 | D: 21*

The list continues:
Key to letters: A = Yeast UUG start; B = Cneo AK release; C = E-selectin induc; D = DENV2 CPE
compound: C[C@@H]1CN([C@@H](C)CO)C(=O)c2cc(NC(=O)Nc3ccc(C(F)(F)F)cc3)ccc2O[C@H]1CN(C)Cc1ccccc1
  A: 0 | B: -1 | C: 1 | D: 5
compound: C[C@@H]1CN([C@H](C)CO)C(=O)c2cc(NC(=O)Nc3ccc(C(F)(F)F)cc3)ccc2O[C@@H]1CN(C)Cc1ccccc1
  A: 10 | B: -1 | C: 1 | D: 83*
compound: CNC[C@@H]1Oc2ccc(NC(=O)CCC(F)(F)F)cc2CC(=O)N([C@@H](C)CO)C[C@H]1C
  A: 16 | B: 0 | C: 0 | D: -3
compound: Cc1cc(C(=O)Nc2ccc3c(c2)C(=O)N(C)[C@@H]2CC[C@@H](CC(=O)N[C@@H](C)c4ccccc4)O[C@@H]2CO3)no1
  A: 24 | B: 83* | C: 0 | D: 2
compound: Cc1cc(C(=O)Nc2ccc3c(c2)C(=O)N(C)[C@H]2CC[C@@H](CC(=O)N[C@@H](C)c4ccccc4)O[C@H]2CO3)no1
  A: 22 | B: 100* | C: 0 | D: 97*
compound: C[C@H](NC(=O)C[C@H]1CC[C@H]2[C@H](COc3ccc(NS(=O)(=O)c4ccc(Cl)cc4)cc3C(=O)N2C)O1)c1ccccc1
  A: . | B: 0 | C: 128* | D: 8
compound: Cc1cc(C(=O)Nc2ccc3c(c2)C(=O)N(C)[C@@H]2CC[C@@H](CC(=O)N[C@H](C)c4ccccc4)O[C@H]2CO3)no1
  A: 12 | B: 7 | C: 0 | D: 1
compound: Cc1cc(C(=O)Nc2ccc3c(c2)C(=O)N(C)[C@H]2CC[C@H](CC(=O)N[C@@H](C)c4ccccc4)O[C@H]2CO3)no1
  A: 12 | B: 7 | C: 0 | D: -7
compound: Cc1noc(C)c1NC(=O)Nc1cccc2c1O[C@H](CN(C)C(=O)Nc1ccc(F)cc1)[C@@H](C)CN([C@@H](C)CO)C2=O
  A: 15 | B: . | C: 0 | D: .
compound: Cc1ccc(-n2nc3c(c2NC(=O)c2ccco2)CS(=O)C3)c(C)c1 (stereo not given)
  A: -20 | B: 2 | C: 1 | D: 55*
compound: Cc1cccc(-n2nc3c(c2NC(=O)c2ccco2)CS(=O)C3)c1C (stereo not given)
  A: . | B: . | C: 1 | D: 14
compound: O=C(Nc1ccccc1)N[C@H](Cc1ccccc1)Cn1cc(CN2C(=O)COC[C@H]2c2ccccc2)nn1
  A: 84 | B: -25 | C: . | D: 21*
compound: C[C@@H]1CCCCO[C@@H](CN(C)Cc2ccccc2)[C@H](C)CN([C@H](C)CO)C(=O)c2cc(NC(=O)c3ccncc3)ccc2O1
  A: . | B: 3 | C: 0 | D: 2

Of the compounds above, 2 contain a COOH group.
Key to letters: A = Yeast UUG start; B = Cneo AK release; C = E-selectin induc; D = DENV2 CPE
compound: C[C@H](CO)N1C[C@H](C)[C@H](CN(C)Cc2ccc(C(=O)O)cc2)Oc2ccc(NS(=O)(=O)c3ccc(F)cc3)cc2CC1=O
  A: 2 | B: -3 | C: 1 | D: 3
compound: C[C@@H]1CN([C@@H](C)CO)C(=O)Cc2cc(NC(=O)Nc3ccc(F)cc3)ccc2O[C@@H]1CN(C)Cc1ccc(C(=O)O)cc1
  A: 18 | B: 63 | C: 80* | D: ?
